{"source": "ChEMBL document CHEMBL2057196", "about": "“Discovery of a novel class of potent human deoxyuridine triphosphatase inhibitors remarkably enhancing the antitumor activity of thymidylate synthase inhibitors” (J Med Chem, 2012)", "biological_target": "T1, Deoxyuridine 5'-triphosphate nucleotidohydrolase, mitochondrial (Homo sapiens, UniProt P33316)", "T1 sequence (P33316 whole entry)": "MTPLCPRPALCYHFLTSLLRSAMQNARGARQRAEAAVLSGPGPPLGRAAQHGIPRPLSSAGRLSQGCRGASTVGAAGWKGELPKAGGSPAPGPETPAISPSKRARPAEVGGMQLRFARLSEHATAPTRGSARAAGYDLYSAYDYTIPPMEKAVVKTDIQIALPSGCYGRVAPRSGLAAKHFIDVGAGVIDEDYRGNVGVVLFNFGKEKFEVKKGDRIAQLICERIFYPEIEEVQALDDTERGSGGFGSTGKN", "experiment": "Inhibition of human dUTPase assessed as production of [5-3H]dUMP from [5-3H]dUTP after 15 mins measured by HPLC analysis", "data": [{"molecule": "CC(C)(CCCOCn1ccc(=O)[nH]c1=O)NS(=O)(=O)c1ccccc1", "values": [{"measurement": "IC50", "result": 3.9, "unit": "µM"}]}]}
